These results are taken from US9688856B2, “Biologically active silicic acid” (dated 2017).

The chains behind the UniProt entries cited, without tags or fusion partners. Where a name states a change or a piece, a line headed by the entry shows the natural chain unless it says otherwise.
UniProt P04191: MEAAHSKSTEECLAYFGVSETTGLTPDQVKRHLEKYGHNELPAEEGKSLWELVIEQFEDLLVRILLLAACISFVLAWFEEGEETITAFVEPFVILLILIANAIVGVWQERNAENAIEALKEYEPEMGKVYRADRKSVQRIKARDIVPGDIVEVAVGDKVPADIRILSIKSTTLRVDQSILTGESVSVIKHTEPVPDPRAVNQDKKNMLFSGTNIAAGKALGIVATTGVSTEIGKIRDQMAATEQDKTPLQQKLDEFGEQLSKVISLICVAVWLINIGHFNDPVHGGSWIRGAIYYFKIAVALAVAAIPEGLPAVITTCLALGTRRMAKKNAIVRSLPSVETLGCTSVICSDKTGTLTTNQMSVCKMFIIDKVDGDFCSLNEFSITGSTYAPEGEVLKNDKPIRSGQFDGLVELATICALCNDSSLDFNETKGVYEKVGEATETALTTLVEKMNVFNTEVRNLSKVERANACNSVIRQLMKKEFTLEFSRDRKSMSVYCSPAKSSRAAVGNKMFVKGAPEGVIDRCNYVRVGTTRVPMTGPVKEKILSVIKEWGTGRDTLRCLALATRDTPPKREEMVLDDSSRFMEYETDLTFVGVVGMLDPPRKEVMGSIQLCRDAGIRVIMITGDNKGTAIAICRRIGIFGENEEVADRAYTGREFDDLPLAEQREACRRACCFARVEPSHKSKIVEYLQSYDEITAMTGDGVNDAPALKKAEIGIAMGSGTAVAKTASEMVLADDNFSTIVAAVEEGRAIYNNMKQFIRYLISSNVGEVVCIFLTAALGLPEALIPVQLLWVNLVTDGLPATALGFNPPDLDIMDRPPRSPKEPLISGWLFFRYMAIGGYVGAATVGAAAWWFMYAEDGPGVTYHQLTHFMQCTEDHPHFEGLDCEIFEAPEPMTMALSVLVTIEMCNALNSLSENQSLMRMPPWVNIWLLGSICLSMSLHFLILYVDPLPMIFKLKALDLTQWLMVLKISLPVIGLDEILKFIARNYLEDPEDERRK

pIC50: −log10 of the molar value. Where two headings read alike, the source gives them in different places.

In general, pIC50 refers to the negative decadic logarithm of the IC50, by convention in mol/L.

The conditions of series [1]: cited from earlier work.
The target of series [2] is Ca-ATPase pump of the endoplasmic reticulum (SERCA) (Oryctolagus cuniculus, UniProt P04191). The conditions noted are these: prior art; cited from earlier work.
Series [3] deals with Na,K-ATPase, H/K-ATPase, Ca-ATPase and other P-type ATPase enzymes. The conditions noted are these: prior art; cited from earlier work.
Series [4] has as its target rabbit medulla Na,K-ATPase (Oryctolagus cuniculus, UniProt Q9N0Z6). Briefly: Inhibition of rabbit medulla Na,K-ATPase, coupled pyruvate kinase/lactate dehydrogenase assay.
The subject of series [5] is diabetes mice db/db. Briefly: Blood glucose in diabetes mice db/db. The settings on record: within 2 h of administration; SNSA 24 mg/kg body weight.
Series [6] relates to ERK1 and ERK2. Briefly: ERK phosphorylation in THP1 cells.
The test system of series [7] is HD dermal lesions. Briefly: Wound healing in sulphur mustard (HD) model on weanling pigs.
[8] abbreviates: same enzyme, cardiac glycosides.

Regarding `C[C@H]1O[C@@H](O[C@H]2[C@@H](O)C[C@H](O[C@H]3[C@@H](O)C[C@H](O[C@H]4CC[C@@]5(C)[C@H](CC[C@@H]6[C@@H]5C[C@@H](O)[C@]5(C)[C@@H](C7=CC(=O)OC7)CC[C@]65O)C4)O[C@@H]3C)O[C@@H]2C)C[C@H](O)[C@@H]1O`, the “well tolerated daily administration” value in series [1] (daily) was 4-5 mg/patient. In addition, in series [1] (in vivo), the LD50 is given as 0.1 mg/kg body weight and the “dose that may cause fatal toxicity” value was 8-10 mg/patient/day. For the compound `CC(C)(C)c1cc(O)c(C(C)(C)C)cc1O`, the “SERCA inhibition potency range of previous art inhibitors” value (shortened to “SERCA inhibition potency range”) in series [2] is on record as “micromolar (μM) range”. `CC(=O)C1=C(O)[C@@H]2[C@H]3c4c[nH]c5cccc(c45)C[C@H]3C(C)(C)N2C1=O`: the “SERCA inhibition potency range” value in series [2] is “micromolar (μM) range”. In the case of `C/C=C(/C)C(=O)O[C@H]1C(C)=C2[C@H]([C@@H]1OC(=O)CCCCCCC)[C@@](C)(OC(C)=O)C[C@H](OC(=O)CCC)[C@@]1(O)[C@H]2OC(=O)[C@@]1(C)O`, the “SERCA inhibition potency range” value in series [2] is on record as “sub-nano-molar range”.

Consider meta-vanadate (VO3)n^−, for which the “IC50 (half-inhibitory concentration) range” value in series [3] is “micro- and sub-micro-molar range”.

In series [4] (setting [8]), `C[C@@H]1O[C@@H](O[C@H]2CC[C@]3(C=O)[C@H]4CC[C@]5(C)[C@@H](c6ccc(=O)oc6)CC[C@]5(O)[C@@H]4CC[C@]3(O)C2)[C@H](O)[C@H](O)[C@H]1O[C@@H]1O[C@H](CO)[C@@H](O)[C@H](O)[C@H]1O` showed a pIC50 of 6.00.

For decavanadates [V10O28]^6−, the “IC50 (half-inhibitory concentration) range” value in series [3] was “micro- and sub-micro-molar range”. For the compound Rosglitazone, in series [5], the “lowering of blood glucose level” value is 22%. Same read-out and setting: the figure for bis-L-Glutamyl Vanadate is 52.5%. Turning to sodium vanadate, the “effect of treatment with H2O2 (peroxydation) on activation of ERK1 and ERK2” value in series [6] is “increases strongly”. With `COc1cc(/C=C/C(=O)CC(=O)/C=C/c2ccc(O)c(OC)c2)ccc1O`, the “SERCA inhibition potency range” value in series [2] is given as “micromolar (μM) range”. For `NCc1ccc(S(N)(=O)=O)cc1`, in series [7] (Mafenide (50 mg)), the “Disrupted TEWL” value was “day 4”; the “Re-epitelization, mean value of three blisters” value turned out to be 38.0 days; the “Recovered TE barrier, mean value of three blisters” value turned out to be 44.3 days. Further, in series [7] (Mafenide (50 mg) in buffer, 3-time daily), the Blister formation was found to be 3 h. Regarding `C[C@@H]1O[C@@H](O[C@H]2C[C@@H](O)[C@]3(CO)[C@H]4[C@H](O)C[C@]5(C)[C@@H](C6=CC(=O)OC6)CC[C@]5(O)[C@@H]4CC[C@]3(O)C2)[C@H](O)[C@H](O)[C@H]1O`, the pIC50 in series [4] (read-out: mean IC50, standard freshly prepared for each measurement set) was 5.91; in series [4] (read-out: mean IC50 in molar units, corresponding to 0.72 μg/ml) it was 6.00; in series [4] (setting [8]), 6.00.
